The source of these data is publication PMC8523698, “Preclinical characterization of an intravenous coronavirus 3CL protease inhibitor for the potential treatment of COVID19” (Nature Communications, 2021).

The target of the data set is T1, OATP1B1 (Homo sapiens, UniProt Q9Y6L6).
T1 sequence (Q9Y6L6 1-691): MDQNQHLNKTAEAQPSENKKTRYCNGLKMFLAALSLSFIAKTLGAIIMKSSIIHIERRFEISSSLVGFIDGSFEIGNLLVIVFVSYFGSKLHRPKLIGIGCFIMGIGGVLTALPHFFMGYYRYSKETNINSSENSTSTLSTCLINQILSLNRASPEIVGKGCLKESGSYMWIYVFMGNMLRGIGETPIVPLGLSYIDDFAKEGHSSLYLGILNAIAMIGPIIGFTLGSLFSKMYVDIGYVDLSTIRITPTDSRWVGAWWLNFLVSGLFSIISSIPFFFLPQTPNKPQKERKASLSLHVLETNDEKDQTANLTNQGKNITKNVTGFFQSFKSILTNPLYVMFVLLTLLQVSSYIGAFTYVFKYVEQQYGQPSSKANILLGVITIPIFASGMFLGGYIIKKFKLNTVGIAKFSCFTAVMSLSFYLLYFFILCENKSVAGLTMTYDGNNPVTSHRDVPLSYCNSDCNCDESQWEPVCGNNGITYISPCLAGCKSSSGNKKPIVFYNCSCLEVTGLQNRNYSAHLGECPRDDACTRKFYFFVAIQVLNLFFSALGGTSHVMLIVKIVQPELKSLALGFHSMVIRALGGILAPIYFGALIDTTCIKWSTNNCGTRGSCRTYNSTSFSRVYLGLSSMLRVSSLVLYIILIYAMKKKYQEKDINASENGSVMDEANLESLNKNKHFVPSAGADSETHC
The experiment in a line: Transporter inhibition using transfected HEK293 cells. To be noted: uptake of Rosuvastatin by OATP1B1; inhibitor 300.0000 uM.

Where “and” joins values, the source holds several entries; their conditions need not be identical. Equal entries are not always repeated.

For `COc1cccc2[nH]c(C(=O)N[C@@H](CC(C)C)C(=O)N[C@@H](C[C@@H]3CCNC3=O)C(=O)CO)cc12` [PF-00835231], the “% Uptake Activity” value was 2.3% and 1.8% and 2.6%.
